# Apparent affinities of Ab-14 variants for a coronavirus HR2 peptide

From the AlphaSeq antibody data of Engelhart et al. 2022 (doi:10.1038/s41597-022-01779-4), copy in the FLAb collection.

Target peptide (SARS-CoV-2 spike, HR2 region): PDVDLGDISGINAS

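The parent was found by panning a naive human phage display library on the peptide. In library AAYL49, one, two or three CDR residues were substituted; doubles and triples were drawn at random. The assay is AlphaSeq: two haploid yeast populations carry antibody and antigen on their surface. Mating (16 h, 30 °C) was followed by selection of diploids and sequencing of their barcodes. Each replicate has its own calibration line, from reference interactions of the BCL2 family. The assay was run in three technical replicates.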

Parent scFv Ab-14: VH joined to VL by three GGGGS repeats. Changes lie in the heavy chain CDRs alone.
VH: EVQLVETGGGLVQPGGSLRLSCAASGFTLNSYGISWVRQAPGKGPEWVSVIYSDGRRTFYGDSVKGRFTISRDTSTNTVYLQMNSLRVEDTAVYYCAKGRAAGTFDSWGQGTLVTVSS
VL: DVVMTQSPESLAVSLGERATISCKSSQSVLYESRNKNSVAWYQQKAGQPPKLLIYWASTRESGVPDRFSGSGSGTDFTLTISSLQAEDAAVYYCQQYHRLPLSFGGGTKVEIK

Each variant is given by its three heavy chain CDRs, as the data file delimits them; those of the parent are GFTLNSYGIS, VIYSDGRRTFYGDSVK, GRAAGTFDS.
Every variant below is changed at G103 of the VH (sequential numbering).
Values are apparent Kd, the geometric mean of the replicates that gave a signal; lower means stronger binding.
An entry "nd" has no value in the source: the pair was not observed among the diploids in any replicate. This suggests poor binding but is not conclusive.
Nonspecific signal, from three strains lacking the peptide, appeared in 15% of pairings of library AAYL49, centred on 11 µM (5% of these signals below 680 nM); values are not corrected for it. The control count says in how many pairings with the empty strains this scFv gave a signal.

GFTLNSYGIS, VIYSDGGRTFYGDSPK, GRAAYTFDS: nd (0 of 3 replicates; controls 0 of 9).
GFTLNSYGIS, VPYSDGRRTFYGDSVK, GRAAITFDS: nd (0 of 3 replicates; controls 1 of 9).
GFTLNSYGIS, VQYSDGQRTFYGDSVK, GRAAWTFDS: nd (0 of 3 replicates; controls 1 of 9).
GFTLNSYGIS, VIYSDGRRTFYGRSVK, GRAAPTFDK: nd (0 of 3 replicates; controls 1 of 9).
GFTLNSYGIS, VIYSDGRIRFYGDSVK, GRAAWTFDS: nd (0 of 3 replicates; controls 0 of 9).
GFTLNSYGIS, VIYSKGRRTFYGDSVK, GRAAHNFDS: nd (0 of 3 replicates; controls 1 of 9).
GFTDNSYGIS, VIYSDGRRTFYMDSVK, GRAAITFDS: nd (0 of 3 replicates; controls 1 of 9).
GFTLNSYGIS, VIYSDQRRTFYGDSVG, GRAADTFDS: nd (0 of 3 replicates; controls 0 of 9).
GLTLNSYGIS, VIYSDGRRTFYGDYVK, GRAAVTFDS: 8.2 µM (1 of 3 replicates; controls 0 of 9).
GFKLNSYGIS, VIYSCGRRTFYGDSVK, GRAAMTFDS: nd (0 of 3 replicates; controls 3 of 9).
GFTLNSYGIS, VIYSDGRRTFYGDSVG, GRPAWTFDS: nd (0 of 3 replicates; controls 0 of 9).
GFTLNSYGIS, VIYSDGRRTFYGDSGK, GRAGRTFDS: nd (0 of 3 replicates; controls 0 of 9).
GFTLNSYGIS, VIYSDGRREFYGDGVK, GRAAQTFDS: 310 nM (1 of 3 replicates; controls 0 of 9).
GFTLNSYGIS, VIYKDGRRTFYGDSVK, GRALRTFDS: nd (0 of 3 replicates; controls 0 of 9).
GFTLNSYGWS, VIYSDGRRTFYGDSVK, GRALTTFDS: nd (0 of 3 replicates; controls 1 of 9).
GFTLNSYGIS, MIYSDGRRTFYGDSVK, GRAAMTFLS: nd (0 of 3 replicates; controls 0 of 9).
GFTLNSYHFS, VIYSDGRRTFYGDSVK, GRAAETFDS: nd (0 of 3 replicates; controls 1 of 9).
GFTLNSYWIS, VIYSDWRRTFYGDSVK, GRAAWTFDS: nd (0 of 3 replicates; controls 2 of 9).
GFTLNSYGIS, VITSDGRRVFYGDSVK, GRAAFTFDS: 160 nM (1 of 3 replicates; controls 0 of 9).
GFTLNSYGIS, VFYSDGRRTFYGDKVK, GRAAFTFDS: nd (0 of 3 replicates; controls 0 of 9).
GFTLTSYGIS, VIYSDCRRTFYGDSVK, GRAAYTFDS: nd (0 of 3 replicates; controls 0 of 9).
GFTLNSYGIS, QIYSDGRRTFYGDSVK, GRAAFTFDS: nd (0 of 3 replicates; controls 0 of 9).
GFTLNSYGIR, VIYSDGRRTFYGDSVK, GRAAWTFVS: 5.8 µM (1 of 3 replicates; controls 1 of 9).
GFTLNSYGIS, VIYSDGRRTFYGDEVN, GRAAHTFDS: 9.5 µM (2 of 3 replicates; controls 1 of 9).
GFTLNSYGIS, VIYSDWRRTFYGDSVK, GRAAHTFDS: nd (0 of 3 replicates; controls 0 of 9).
GFTLQSYGIS, VIYSCGRRTFYGDSVK, GRAAETFDS: nd (0 of 3 replicates; controls 0 of 9).
GFTLNSYGIS, VSYADGRRTFYGDSVK, GRAACTFDS: nd (0 of 3 replicates; controls 1 of 9).
GFTTNSYGIS, VIYSDGFRTFYGDSVK, GRAANTFDS: nd (0 of 3 replicates; controls 0 of 9).
GFTLNSYGIS, VIYSYGRRTFYGDSVD, GRAASTFDS: nd (0 of 3 replicates; controls 0 of 9).
GFTLNSYGSS, VIYSDGRTTFYGDSVK, GRAAVTFDS: 920 nM (1 of 3 replicates; controls 1 of 9).
GFTLNSFGIS, VIYSDGRRTFYGDSVK, GRAASTFDS: nd (0 of 3 replicates; controls 1 of 9).
GFTLNSYGCS, VIYSDGYRTFYGDSVK, GRAAETFDS: 1.9 µM (1 of 3 replicates; controls 0 of 9).
GFTLNTYGIS, SIYSDGRRTFYGDSVK, GRAAPTFDS: nd (0 of 3 replicates; controls 0 of 9).
GFTLNSYGIS, VIYSDGRRTFYDDSVK, GRIAKTFDS: nd (0 of 3 replicates; controls 0 of 9).
GFTLNSYGIS, KIYSDGRRTFYGVSVK, GRAAKTFDS: 2.4 µM (1 of 3 replicates; controls 2 of 9).
GFTLNSYGIS, VILSDGRRTFYGDAVK, GRAAWTFDS: 32 µM (1 of 3 replicates; controls 1 of 9).
GFTLNSMGIS, VIYSDGRRTFYGDSVK, GRAASTFDS: 1.4 µM (1 of 3 replicates; controls 0 of 9).

For reference, 5 entries of the list once more:

Variant GFKLNSYGIS, VIYSCGRRTFYGDSVK, GRAAMTFDS gave nd (0 of 3 replicates; controls 3 of 9).
Variant GFTLNSYGIS, QIYSDGRRTFYGDSVK, GRAAFTFDS gave nd (0 of 3 replicates; controls 0 of 9).
Variant GFTLNSYGIS, VIYSDWRRTFYGDSVK, GRAAHTFDS gave nd (0 of 3 replicates; controls 0 of 9).
Variant GFTLNSYHFS, VIYSDGRRTFYGDSVK, GRAAETFDS gave nd (0 of 3 replicates; controls 1 of 9).
Variant GFTLNSYGIS, VQYSDGQRTFYGDSVK, GRAAWTFDS gave nd (0 of 3 replicates; controls 1 of 9).

For reference, the parent read 4.4 nM as the reference entry and 13 µM (one replicate of three) as a member of this library.